Chains of the proteins cited; added tags and fusions are not shown. A line that says so, or that is headed by a name, gives the form on record, which may keep a tag or linker. Residues count along the entry.
UniProt Q08499, 303-809 limits assumed: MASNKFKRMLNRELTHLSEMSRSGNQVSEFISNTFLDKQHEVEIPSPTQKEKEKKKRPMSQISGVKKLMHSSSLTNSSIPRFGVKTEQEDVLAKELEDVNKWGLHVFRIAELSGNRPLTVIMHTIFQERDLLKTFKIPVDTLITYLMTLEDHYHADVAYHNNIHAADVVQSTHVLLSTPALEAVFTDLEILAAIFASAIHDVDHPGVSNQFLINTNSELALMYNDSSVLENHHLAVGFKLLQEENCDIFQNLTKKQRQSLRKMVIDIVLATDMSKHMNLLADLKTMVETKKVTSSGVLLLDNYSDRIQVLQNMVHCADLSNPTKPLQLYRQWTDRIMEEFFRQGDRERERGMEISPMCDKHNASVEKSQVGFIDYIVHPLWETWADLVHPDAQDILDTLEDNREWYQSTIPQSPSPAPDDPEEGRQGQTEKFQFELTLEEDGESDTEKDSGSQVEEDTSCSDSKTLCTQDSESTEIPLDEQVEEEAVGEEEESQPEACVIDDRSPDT
UniProt Q14432, whole entry: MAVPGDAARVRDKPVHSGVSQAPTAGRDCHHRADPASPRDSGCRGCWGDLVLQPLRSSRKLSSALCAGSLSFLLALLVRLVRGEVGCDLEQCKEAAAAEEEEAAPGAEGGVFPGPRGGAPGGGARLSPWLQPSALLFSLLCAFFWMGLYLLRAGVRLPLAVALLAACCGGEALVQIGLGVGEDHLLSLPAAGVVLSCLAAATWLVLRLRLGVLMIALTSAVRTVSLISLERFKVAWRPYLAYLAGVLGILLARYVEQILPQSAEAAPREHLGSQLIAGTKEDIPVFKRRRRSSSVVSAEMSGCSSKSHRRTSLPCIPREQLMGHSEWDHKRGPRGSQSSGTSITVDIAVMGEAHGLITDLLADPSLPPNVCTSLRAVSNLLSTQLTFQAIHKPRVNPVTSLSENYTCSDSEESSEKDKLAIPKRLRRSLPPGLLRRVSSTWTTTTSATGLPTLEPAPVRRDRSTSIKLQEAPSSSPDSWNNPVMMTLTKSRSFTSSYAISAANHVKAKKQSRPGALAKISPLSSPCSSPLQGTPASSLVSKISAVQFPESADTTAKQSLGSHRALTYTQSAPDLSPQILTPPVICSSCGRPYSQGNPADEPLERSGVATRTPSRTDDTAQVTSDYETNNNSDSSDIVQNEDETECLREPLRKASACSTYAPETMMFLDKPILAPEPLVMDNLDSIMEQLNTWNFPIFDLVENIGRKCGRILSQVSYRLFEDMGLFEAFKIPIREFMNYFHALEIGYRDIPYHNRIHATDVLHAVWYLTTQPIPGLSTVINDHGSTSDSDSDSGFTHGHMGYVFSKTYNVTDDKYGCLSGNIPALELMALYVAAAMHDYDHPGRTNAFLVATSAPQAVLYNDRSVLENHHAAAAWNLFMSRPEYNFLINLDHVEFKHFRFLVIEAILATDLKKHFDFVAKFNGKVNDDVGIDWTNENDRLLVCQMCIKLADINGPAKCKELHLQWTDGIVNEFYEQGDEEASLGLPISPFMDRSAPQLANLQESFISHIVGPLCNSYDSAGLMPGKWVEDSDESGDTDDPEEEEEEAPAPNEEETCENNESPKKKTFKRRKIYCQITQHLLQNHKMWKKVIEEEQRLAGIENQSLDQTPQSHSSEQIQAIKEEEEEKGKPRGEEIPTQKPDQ
UniProt Q13370, whole entry: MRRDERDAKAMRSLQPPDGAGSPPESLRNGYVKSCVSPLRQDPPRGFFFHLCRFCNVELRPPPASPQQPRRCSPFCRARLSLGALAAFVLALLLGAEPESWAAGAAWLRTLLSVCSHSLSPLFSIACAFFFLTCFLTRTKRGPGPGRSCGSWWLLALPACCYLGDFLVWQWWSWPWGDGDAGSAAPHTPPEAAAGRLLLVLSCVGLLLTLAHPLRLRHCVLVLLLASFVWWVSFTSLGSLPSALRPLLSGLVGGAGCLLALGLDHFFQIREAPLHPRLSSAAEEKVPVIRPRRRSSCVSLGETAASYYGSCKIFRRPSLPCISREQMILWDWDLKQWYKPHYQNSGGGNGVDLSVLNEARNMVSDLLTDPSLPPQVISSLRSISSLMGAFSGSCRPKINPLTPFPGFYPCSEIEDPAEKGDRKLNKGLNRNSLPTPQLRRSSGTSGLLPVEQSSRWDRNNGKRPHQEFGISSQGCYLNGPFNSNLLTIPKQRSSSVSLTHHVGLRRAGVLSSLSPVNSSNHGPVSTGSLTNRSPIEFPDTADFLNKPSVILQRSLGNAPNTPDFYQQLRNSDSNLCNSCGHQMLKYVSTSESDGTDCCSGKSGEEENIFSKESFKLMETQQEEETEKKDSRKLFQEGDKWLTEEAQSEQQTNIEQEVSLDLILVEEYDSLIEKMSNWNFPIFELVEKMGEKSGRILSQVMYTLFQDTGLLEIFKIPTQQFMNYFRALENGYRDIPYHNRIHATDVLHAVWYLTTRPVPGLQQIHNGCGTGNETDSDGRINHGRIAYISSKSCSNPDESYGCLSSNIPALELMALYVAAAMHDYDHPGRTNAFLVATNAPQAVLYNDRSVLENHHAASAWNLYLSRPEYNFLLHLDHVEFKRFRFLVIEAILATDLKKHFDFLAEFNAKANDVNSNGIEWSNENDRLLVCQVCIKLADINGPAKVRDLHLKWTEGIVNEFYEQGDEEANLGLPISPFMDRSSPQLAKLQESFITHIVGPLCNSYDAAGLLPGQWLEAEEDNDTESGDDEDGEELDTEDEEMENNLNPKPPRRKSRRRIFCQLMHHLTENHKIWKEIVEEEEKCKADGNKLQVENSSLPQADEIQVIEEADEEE
UniProt Q07343, 1-564 with tags or gaps: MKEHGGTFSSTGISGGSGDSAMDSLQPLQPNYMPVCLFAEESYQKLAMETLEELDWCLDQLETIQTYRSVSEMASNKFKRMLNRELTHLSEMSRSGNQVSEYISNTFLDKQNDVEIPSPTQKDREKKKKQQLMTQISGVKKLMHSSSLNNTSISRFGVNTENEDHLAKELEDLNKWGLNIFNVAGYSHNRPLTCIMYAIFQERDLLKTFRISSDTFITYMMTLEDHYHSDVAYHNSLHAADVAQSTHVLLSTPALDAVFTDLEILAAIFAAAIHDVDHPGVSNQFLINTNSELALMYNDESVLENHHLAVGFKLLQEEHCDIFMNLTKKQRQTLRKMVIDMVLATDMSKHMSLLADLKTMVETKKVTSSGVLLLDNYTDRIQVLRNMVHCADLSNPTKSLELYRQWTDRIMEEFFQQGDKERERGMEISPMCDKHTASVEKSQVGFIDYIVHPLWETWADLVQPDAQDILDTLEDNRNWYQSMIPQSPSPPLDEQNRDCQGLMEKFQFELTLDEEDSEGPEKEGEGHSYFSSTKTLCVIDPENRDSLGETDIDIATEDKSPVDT

In patent EP4825857A1, “TRICYCLIC FUSED HETEROCYCLIC PDE3/4 DUAL INHIBITOR, AND PREPARATION AND USE THEREFOR” (dated 2026):

Legend:
Test in all cases: PDE enzyme activity inhibition assay (fluorescence polarization, IMAP)
[1] = biological target: PDE4D2 (Homo sapiens, UniProt Q08499); details: read-out: PDE4D2; FP assay, Table 4
Method: (§1) The inhibitory activity of the compounds of the Examples against PDE enzymes was evaluated using a fluorescence polarization (FP) assay. RPL-554, the compound disclosed in Example 1 of CN100415743C, was used as the positive control. [drawing 182]
(§2) In a reaction buffer, i.e., 1× IMAP Reaction Buffer containing 0.1% BSA and supplemented with 1 mM DTT, a PDE enzyme solution and a substrate solution (FAM-cyclic AMP/cyclic AMP) were prepared. The positive control was prepared at an initial concentration of 1/10 µM for the PDE assay and was diluted 3-fold, with a 10+0 dose design. Using the acoustic liquid handling technology (Echo 655), 0.05 µL of each compound in 100% DMSO was transferred into a 384-well plate (Corning 4514), followed by centrifugation at 1,000 rpm for 1 min. Then, 2.5 µL of the PDE enzyme solution was transferred into the 384-well reaction plate, followed by centrifugation at 1,000 rpm for 1 min and incubation at 25 °C for 10 min. Subsequently, 2.5 µL of the substrate solution was transferred into the 384-well reaction plate, followed by centrifugation at 1,000 rpm for 1 min and incubation at 25 °C for 60 min. Then, 15 µL of a binding reagent mixture was transferred into the 384-well reaction plate, followed by centrifugation at 1,000 rpm for 1 min and incubation at 25 °C for 60 min. Finally, the FP signal was measured using a BMG PHERAstar FSX plate reader. IC50 values and nonlinear regression curve fitting were obtained using GraphPad Prism software.
(§3) The inhibitory activities of the compounds against PDE enzymes were evaluated using the FP method, with RPL-554 and compound D7 as control compounds. The detailed test method was the same as that described in PDE Enzyme Activity Inhibition Assay I. The structural formulae of RPL-554 and compound D7 are shown below. [drawing 183]

[2] = biological target: PDE3A (Homo sapiens, UniProt Q14432); details: read-out: PDE3A; FP assay, Table 4
Method: as §1, §2, §3

[3] = biological target: PDE3B (Homo sapiens, UniProt Q13370); details: read-out: PDE3B; FP assay, Table 4
Method: as §1, §2, §3

[4] = biological target: PDE4B2 (Homo sapiens, UniProt Q07343); details: read-out: PDE4B2; FP assay, Table 4
Method: as §1, §2, §3

| SMILES | IC50 [1] [nM] | IC50 [2] [nM] | IC50 [3] [nM] | IC50 [4] [nM] |
| --- | --- | --- | --- | --- |
| COc1cc2c(cc1OC)-c1cc(N(c3c(OC)cc(C)cc3OC)C(C)CNC(N)=O)nc(=O)n1CC2 (single isomer, unassigned) [Compound 24-2] | 58 | 7.63 | 12.7 | 76.5 |
| COc1cc2c(cc1OC)-c1cc(N(c3c(C)cc(C)cc3C)C(C)CNC(=O)c3ncccc3C)nc(=O)n1CC2 (centres unmarked) | 0.568 | 0.108 | 0.122 | 1.01 |
| COc1cc2c(cc1OC)-c1cc(N(c3c(C)cc(C)cc3C)C(C)CNC(=O)c3cnn[nH]3)nc(=O)n1CC2 (single isomer, unassigned) [Compound 9-2] | 160 | 0.0751 | 0.0818 | 162 |
| COc1cc2c(cc1OC)-c1cc(N(c3c(C(C)C)cc(C)cc3C(C)C)C(C)CNC(N)=O)nc(=O)n1CC2 (single isomer, unassigned) [Compound 23-2] | 63.4 | 0.136 | 0.171 | 85.3 |
| COc1cc2c(cc1OC)-c1cc(N(c3c(C)cc(C)cc3C)C3CCN(C(N)=O)C3)nc(=O)n1CC2 (centres unmarked) | 98.7 | 0.077 | 0.122 | 130 |
| COc1cc2c(cc1OC)-c1cc(N(CCCNC(N)=O)c3c(C)cc(C)cc3C)nc(=O)n1CC2 | 1810 | 1210 | 973 | 3070 |
| COc1cc2c(cc1OC)-c1cc(N(C(=O)CNC(N)=O)c3c(C)cc(C)cc3C)nc(=O)n1CC2 | 1400 | 13.9 | 27.3 | 1290 |
| COc1cc2c(cc1OC)-c1cc(N(c3c(C)cc(C)cc3C)C(C)CNC(=O)c3[nH]nnc3C)nc(=O)n1CC2 (single isomer, unassigned) [Compound 12-2] | 78.8 | 0.0691 | 0.0727 | 106 |
